Laboratory results from patent US12616739B2, “GLP-1 prodrugs and uses thereof” (Novo Nordisk A/S, priority 2020, dated 2026).

Experiment: Prodrug to drug conversion half-life in vitro, PBS pH 7.4, 37° C.
Assay type: physicochemical
Experimental: General Methods for Measuring Conversion Half-Life
The assay was performed to investigate the conversion half-life of prodrug to drug of the prodrugs of the invention.
Peptide stock solutions were prepared by dissolving freeze-dried powder in PBS buffer to a target of 200 μM. PBS-buffer was Dulbecco's Phosphate Buffered Saline without CaCl2 and MgCl2, gibco 14190-094 adjusted to pH=7.4. The pH of the peptide stock solutions was adjusted to 7.4 with 0.02 M HCl or 0.02M NaOH. Samples were filled in Agilent HPLC vials with fixed insert. Vials were capped to prevent evaporation. The HPLC vials were incubated at 37° C. and samples were withdrawn at different time points over a period of 2 weeks, flash frozen at −80° C., and stored at −20° C. until analysis.
Sample analysis was carried out using UPLC coupled to UV detection at 215 nm and MS (UPLC-UV-MS). One μl of sample was injected on to a Waters Acquity UPLC with a flow-through-needle injection system and on to a Waters Acquity CSH C18 column (1*150 mm), with a particle size of 1.7 μm and held at 55° C. A flow-rate of 100 μl/min was delivered with a Binary solvent manager pump having 0.1% formic acid in water as solvent A and 0.1% formic acid in acetonitrile as solvent B. Gradient elution was carried out using 15-32% B from 0 to 4 min followed by 32 to 48% B from 4 to 54 min.
The identity of the prodrug was confirmed by MS and the peak purity, area %, from the UV signal at 215 nm was plotted as the natural logarithm against time and the slope (k) was used to calculate the first order half-life (T½)=T½=Ln(2)/k.

A half-life of 4.4 days was found for `CC[C@H](C)[C@H](NC(=O)[C@H](Cc1ccccc1)NC(=O)[C@H](CCC(=O)O)NC(=O)[C@H](CCCCNC(=O)COCCOCCNC(=O)COCCOCCNC(=O)CC[C@H](NC(=O)CCCCCCCCCCCCCCCCC(=O)O)C(=O)O)NC(=O)[C@H](C)NC(=O)[C@H](C)NC(=O)[C@H](CCC(N)=O)NC(=O)CNC(=O)[C@H](CCC(=O)O)NC(=O)[C@H](CC(C)C)NC(=O)[C@H](Cc1ccc(O)cc1)NC(=O)[C@H](CO)NC(=O)[C@H](CO)NC(=O)[C@@H](NC(=O)[C@H](CC(=O)O)NC(=O)[C@H](CO)NC(=O)[C@@H](NC(=O)[C@H](Cc1ccccc1)NC(=O)[C@@H](NC(=O)CNC(=O)[C@H](CCC(=O)O)NC(=O)C(C)(C)NC(=O)[C@H](Cc1c[nH]cn1)NC(=O)CN(CCNC(=O)CC[C@H](NC(=O)CCCCCCCCCCCCCCC(=O)O)C(=O)O)C(=O)CN)[C@@H](C)O)[C@@H](C)O)C(C)C)C(=O)N[C@@H](C)C(=O)N[C@@H](Cc1c[nH]c2ccccc12)C(=O)N[C@@H](CC(C)C)C(=O)N[C@H](C(=O)N[C@@H](CCCNC(=N)N)C(=O)NCC(=O)N[C@@H](CCCNC(=N)N)C(=O)NCC(=O)O)C(C)C` [Chem. 14, Gly-N^α-2-[[(4S)-4-carboxy-4-(15-carboxypentadecanoylamino)butanoyl]amino]ethyl-Gly-semaglutide] in this work.
A half-life of 4.2 days was found for `CC[C@H](C)[C@H](NC(=O)[C@H](Cc1ccccc1)NC(=O)[C@H](CCC(=O)O)NC(=O)[C@H](CCCCNC(=O)COCCOCCNC(=O)COCCOCCNC(=O)CC[C@H](NC(=O)CCCCCCCCCCCCCCCCC(=O)O)C(=O)O)NC(=O)[C@H](C)NC(=O)[C@H](C)NC(=O)[C@H](CCC(N)=O)NC(=O)CNC(=O)[C@H](CCC(=O)O)NC(=O)[C@H](CC(C)C)NC(=O)[C@H](Cc1ccc(O)cc1)NC(=O)[C@H](CO)NC(=O)[C@H](CO)NC(=O)[C@@H](NC(=O)[C@H](CC(=O)O)NC(=O)[C@H](CO)NC(=O)[C@@H](NC(=O)[C@H](Cc1ccccc1)NC(=O)[C@@H](NC(=O)CNC(=O)[C@H](CCC(=O)O)NC(=O)C(C)(C)NC(=O)[C@H](Cc1c[nH]cn1)NC(=O)CN(CCCCNC(=O)CC[C@H](NC(=O)CCCCCCCCCCCCCCCCC(=O)O)C(=O)O)C(=O)CN)[C@@H](C)O)[C@@H](C)O)C(C)C)C(=O)N[C@@H](C)C(=O)N[C@@H](Cc1c[nH]c2ccccc12)C(=O)N[C@@H](CC(C)C)C(=O)N[C@H](C(=O)N[C@@H](CCCNC(=N)N)C(=O)NCC(=O)N[C@@H](CCCNC(=N)N)C(=O)NCC(=O)O)C(C)C` [Chem. 15, Gly-N^α-4-[[(4S)-4-carboxy-4-(17-carboxyheptadecanoylamino)butanoyl]amino]butyl-Gly-semaglutide] in this work.
A half-life of 4.7 days was found for `CC[C@H](C)[C@H](NC(=O)[C@H](Cc1ccccc1)NC(=O)[C@H](CCC(=O)O)NC(=O)[C@H](CCCCNC(=O)COCCOCCNC(=O)COCCOCCNC(=O)CC[C@H](NC(=O)CCCCCCCCCCCCCCCCC(=O)O)C(=O)O)NC(=O)[C@H](C)NC(=O)[C@H](C)NC(=O)[C@H](CCC(N)=O)NC(=O)CNC(=O)[C@H](CCC(=O)O)NC(=O)[C@H](CC(C)C)NC(=O)[C@H](Cc1ccc(O)cc1)NC(=O)[C@H](CO)NC(=O)[C@H](CO)NC(=O)[C@@H](NC(=O)[C@H](CC(=O)O)NC(=O)[C@H](CO)NC(=O)[C@@H](NC(=O)[C@H](Cc1ccccc1)NC(=O)[C@@H](NC(=O)CNC(=O)[C@H](CCC(=O)O)NC(=O)C(C)(C)NC(=O)[C@H](Cc1c[nH]cn1)NC(=O)CN(CCNC(=O)CC[C@H](NC(=O)CCCCCCCCCCCCCCCCC(=O)O)C(=O)O)C(=O)CN)[C@@H](C)O)[C@@H](C)O)C(C)C)C(=O)N[C@@H](C)C(=O)N[C@@H](Cc1c[nH]c2ccccc12)C(=O)N[C@@H](CC(C)C)C(=O)N[C@H](C(=O)N[C@@H](CCCNC(=N)N)C(=O)NCC(=O)N[C@@H](CCCNC(=N)N)C(=O)NCC(=O)O)C(C)C` [Chem. 16, Gly-N^α-2-[[(4S)-4-carboxy-4-(17-carboxyheptadecanoylamino)butanoyl]amino]ethyl-Gly-semaglutide] in this work.
A half-life of 4.4 days was found for `CC[C@H](C)[C@H](NC(=O)[C@H](Cc1ccccc1)NC(=O)[C@H](CCC(=O)O)NC(=O)[C@H](CCCCNC(=O)COCCOCCNC(=O)COCCOCCNC(=O)CC[C@H](NC(=O)CCCCCCCCCCCCCCCCC(=O)O)C(=O)O)NC(=O)[C@H](C)NC(=O)[C@H](C)NC(=O)[C@H](CCC(N)=O)NC(=O)CNC(=O)[C@H](CCC(=O)O)NC(=O)[C@H](CC(C)C)NC(=O)[C@H](Cc1ccc(O)cc1)NC(=O)[C@H](CO)NC(=O)[C@H](CO)NC(=O)[C@@H](NC(=O)[C@H](CC(=O)O)NC(=O)[C@H](CO)NC(=O)[C@@H](NC(=O)[C@H](Cc1ccccc1)NC(=O)[C@@H](NC(=O)CNC(=O)[C@H](CCC(=O)O)NC(=O)C(C)(C)NC(=O)[C@H](Cc1c[nH]cn1)NC(=O)CN(CCNC(=O)CC[C@H](NC(=O)CCCCCCCCCCCCC(=O)O)C(=O)O)C(=O)CN)[C@@H](C)O)[C@@H](C)O)C(C)C)C(=O)N[C@@H](C)C(=O)N[C@@H](Cc1c[nH]c2ccccc12)C(=O)N[C@@H](CC(C)C)C(=O)N[C@H](C(=O)N[C@@H](CCCNC(=N)N)C(=O)NCC(=O)N[C@@H](CCCNC(=N)N)C(=O)NCC(=O)O)C(C)C` [Chem. 17, Gly-N^α-2-[[(4S)-4-carboxy-4-(13-carboxytridecanoylamino)butanoyl]amino]ethyl-Gly-semaglutide] in this work.
A half-life of 3.7 days was found for `CC[C@H](C)[C@H](NC(=O)[C@H](Cc1ccccc1)NC(=O)[C@H](CCC(=O)O)NC(=O)[C@H](CCCCNC(=O)COCCOCCNC(=O)COCCOCCNC(=O)CC[C@H](NC(=O)CCCCCCCCCCCCCCCCC(=O)O)C(=O)O)NC(=O)[C@H](C)NC(=O)[C@H](C)NC(=O)[C@H](CCC(N)=O)NC(=O)CNC(=O)[C@H](CCC(=O)O)NC(=O)[C@H](CC(C)C)NC(=O)[C@H](Cc1ccc(O)cc1)NC(=O)[C@H](CO)NC(=O)[C@H](CO)NC(=O)[C@@H](NC(=O)[C@H](CC(=O)O)NC(=O)[C@H](CO)NC(=O)[C@@H](NC(=O)[C@H](Cc1ccccc1)NC(=O)[C@@H](NC(=O)CNC(=O)[C@H](CCC(=O)O)NC(=O)C(C)(C)NC(=O)[C@H](Cc1c[nH]cn1)NC(=O)CN(CCNC(=O)COCCOCCNC(=O)COCCOCCNC(=O)CC[C@H](NC(=O)CCCCCCCCCCCCCCC(=O)O)C(=O)O)C(=O)CN)[C@@H](C)O)[C@@H](C)O)C(C)C)C(=O)N[C@@H](C)C(=O)N[C@@H](Cc1c[nH]c2ccccc12)C(=O)N[C@@H](CC(C)C)C(=O)N[C@H](C(=O)N[C@@H](CCCNC(=N)N)C(=O)NCC(=O)N[C@@H](CCCNC(=N)N)C(=O)NCC(=O)O)C(C)C` [Chem. 19, Gly-N^α-2-[[2-[2-[2-[[2-[2-[2-[[(4S)-4-carboxy-4-(15-carboxypentadecanoylamino)butanoyl]amino]ethoxy]ethoxy]acetyl]amino]ethoxy]ethoxy]acetyl]amino]ethyl-Gly-semaglutide] in this work.
